# Ab-14 heavy chain CDR variants: yeast mating affinities

The measurements come from Engelhart et al. 2022 (doi:10.1038/s41597-022-01779-4) through the FLAb antibody collection.

All variants were tested on one target, the spike HR2 peptide PDVDLGDISGINAS (SARS-CoV-2).

Each scFv is VH, a 15-residue (Gly4Ser)3 linker, VL, as in the parent Ab-14, and differs from it in the CDRs of the heavy chain only.
VH: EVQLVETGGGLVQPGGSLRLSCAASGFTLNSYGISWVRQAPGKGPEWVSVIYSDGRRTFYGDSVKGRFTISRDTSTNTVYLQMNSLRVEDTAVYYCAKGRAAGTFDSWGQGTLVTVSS
VL: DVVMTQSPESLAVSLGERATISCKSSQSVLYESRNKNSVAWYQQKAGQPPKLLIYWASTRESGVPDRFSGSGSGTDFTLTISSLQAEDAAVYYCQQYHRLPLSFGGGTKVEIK

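Phage display of a naive human antibody library on the peptide gave the parent. The library (AAYL49) carries one to three amino acid substitutions per variant, with no insertions or deletions. Affinity was read by AlphaSeq, a pooled yeast mating assay with surface-displayed partners. The frequency of each diploid, read from paired DNA barcodes, reflects how well the two displayed proteins bind. Read counts were normalised to the haploid input and turned into Kd by a linear fit to BCL2-family pairs of known affinity, for each replicate. There are three technical replicates.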

Substitutions are numbered in sequence along the VH above, starting at 1 (not Kabat).
Values are log10 of the apparent Kd in nM; lower means stronger binding.
Replicates are averaged; those with no signal do not enter the mean.
"nd" marks a missing value. The strain was present, yet no cells mated with the target were sequenced in any replicate, which points to weak or no binding.
Nonspecific signal, from three strains lacking the peptide, appeared in 15% of pairings of library AAYL49, centred on 4.06 (5% of these signals below 2.83); values are not corrected for it.
Parent in this assay: reference entry 0.65, copy in this library 4.11 (one replicate of three).

{"changes": "T28F G99W T104V", "log10 Kd (nM), mean": "nd", "detected": "0/3"}
{"changes": "S31G R56N G61M", "log10 Kd (nM), mean": "2.10", "detected": "2/3"}
{"changes": "L29N S31G G103Y", "log10 Kd (nM), mean": "3.85", "detected": "1/3"}
{"changes": "F27T Y32M S53Y", "log10 Kd (nM), mean": "nd", "detected": "0/3"}
{"changes": "F27A L29H T104K", "log10 Kd (nM), mean": "nd", "detected": "0/3"}
{"changes": "V50C G61P A101M", "log10 Kd (nM), mean": "nd", "detected": "0/3"}
{"changes": "G26L Y52E", "log10 Kd (nM), mean": "nd", "detected": "0/3"}
{"changes": "T28G S35E F59L", "log10 Kd (nM), mean": "5.23", "detected": "1/3"}
{"changes": "G26N L29W", "log10 Kd (nM), mean": "4.43", "detected": "1/3"}
{"changes": "K65G A101M T104G", "log10 Kd (nM), mean": "2.20", "detected": "3/3"}
{"changes": "Y32N V50Y D54P", "log10 Kd (nM), mean": "nd", "detected": "0/3"}
{"changes": "D54G G103D", "log10 Kd (nM), mean": "nd", "detected": "0/3"}
{"changes": "D54K V64C S107H", "log10 Kd (nM), mean": "nd", "detected": "0/3"}
{"changes": "G26H V50W G99Q", "log10 Kd (nM), mean": "4.33", "detected": "1/3"}
{"changes": "N30K F59D A101L", "log10 Kd (nM), mean": "2.99", "detected": "2/3"}
{"changes": "T28L G61S R100T", "log10 Kd (nM), mean": "1.15", "detected": "3/3"}
{"changes": "D54H T58S A102L", "log10 Kd (nM), mean": "nd", "detected": "0/3"}
{"changes": "T58Y S63L G99N", "log10 Kd (nM), mean": "nd", "detected": "0/3"}
{"changes": "R57K F105S", "log10 Kd (nM), mean": "1.86", "detected": "3/3"}
{"changes": "G26W L29D D106R", "log10 Kd (nM), mean": "4.11", "detected": "2/3"}
{"changes": "S35R I51A R56M", "log10 Kd (nM), mean": "nd", "detected": "0/3"}
{"changes": "S35N R56I Y60V", "log10 Kd (nM), mean": "5.30", "detected": "1/3"}
{"changes": "Y32L T104Y", "log10 Kd (nM), mean": "4.39", "detected": "1/3"}
{"changes": "T58H R100D", "log10 Kd (nM), mean": "0.78", "detected": "3/3"}
{"changes": "Y32R S35T F59A", "log10 Kd (nM), mean": "4.04", "detected": "2/3"}
{"changes": "G55E V64S D106L", "log10 Kd (nM), mean": "3.39", "detected": "1/3"}